# Counter-ions that a name gives are not always drawn.
# Test system: embryo/fetal development in pregnant Sprague Dawley rats
# Details: 6 mpk subcutaneously once every three days, Gestation Days 6-18, pregnant rats
# Procedure: The objective of this study design was to evaluate the potential effects of disclosed compounds on embryo/fetal development when given subcutaneously to pregnant rats once every three days during the critical period of organogenesis (Gestation Days 6-18). Female, Sprague Dawley rats, approximately 10 weeks of age, time bred, were ordered from a certified vendor and housed individually housed in stainless steel cages suspended over flush pans, on a 12-hour light-dark cycle (0700-1900) at 20-26° C. and 30-70% humidity. Rats were fed a standard rodent chow and provided water ad libitum. Rats were received and housed in the facility for a period of approximately 1 to 2 days.
# Compounds were formulated using 100% DMSO mixed in Sterile Water for Injection, resulting in 2% DMSO solution in water. […] Body weights was recorded for all animals on Gestation Days 5 (purpose of randomization), 6, 9, 12, 15, 18, and 20 (scheduled euthanasia). Food consumption by weight was recorded on Gestation Days 6, 9, 12, 15, 18, and 20 (scheduled termination).
# At necropsy, the dams were examined visually for external abnormalities including palpable masses. The abdominal, thoracic, and cranial cavities and their contents were examined for abnormalities and findings will be recorded. […] For dead fetuses and late resorptions, crown-to-rump length and weight were recorded, if possible, and the fetus was discarded. […]
row,SMILES,Rat Embryofetal @6 mpk
1,"CO[C@@H]1[C@H](OC(=O)N2CC(CCC3CCN(CC(F)F)CC3)C2)CC[C@]2(CO2)[C@H]1[C@@]1(C)O[C@@H]1CC=C(C)C [Example 91, (3R,4S,5S,6R)-5-methoxy-4-((2R,3R)-2-methyl-3-(3-methylbut-2-enyl)oxiran-2-yl)-1-oxaspiro[2.5]octan-6-yl 3-(2-(1-(2,2-difluoroethyl)piperidin-4-yl)ethyl)azetidine-1-carboxylate formate]",Positive
2,"CO[C@@H]1[C@H](OC(=O)N2CC(OC(=O)N3CCOCC3)C2)CC[C@]2(CO2)[C@H]1[C@@]1(C)O[C@@H]1CC=C(C)C [Example 71, 1-(((3R,4S,5S,6R)-5-methoxy-4-((2R,3R)-2-methyl-3-(3-methylbut-2-enyl)oxiran-2-yl)-1-oxaspiro[2.5]octan-6-yloxy)carbonyl)azetidin-3-yl morpholine-4-carboxylate formate]",Negative

# From patent US20190084968A1, “FUMAGILLOL HETEROCYCLIC COMPOUNDS AND METHODS OF MAKING AND USING SAME” (Zafgen, Inc., priority 2015, published 2019)
